# Measured melting point values of organic chemicals

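The OPERA project collected these measurements from public sources as training and test data for property models. A listed value is a point estimate from one report or more. How each value was measured is not recorded, so precision varies. The measured form (salt, isomer or mixture) is not always the one drawn. Some upstream entries may be estimates or bounds without being marked so.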

Melting points are in °C. The databases behind each value are named after "via".

For FC(F)(F)C(F)(F)C(F)(F)c1n[nH]c(-c2ccccc2)c1Br [4-Bromo-3-(heptafluoropropyl)-5-phenyl-1H-pyrazole] the data give melting point 123.5 °C (via ChemicalBook). For O=C(O)CNC(=O)c1ccc(-c2ccccc2)cc1 [[(biphenyl-4-carbonyl)-amino]-acetic acid] the data give melting point 221 °C (via OCHEM). For CCOC(=O)c1sc(-c2ccc(OC)cc2)cc1N [Ethyl 3-amino-5-(4-methoxyphenyl)thiophene-2-carboxylate] the data give melting point 121 °C (via OCHEM). CCOC(=O)Cc1ccc(C(C)=O)cc1 [Ethyl (4-acetylphenyl)acetate] is reported with melting point 56 °C (via OCHEM). The entry for N=C(N)c1ccc(OCCCCCCOc2ccc(C(=N)N)cc2)cc1.O=S(=O)(O)CCO.O=S(=O)(O)CCO [Hexamidine diisethionate] lists melting point 217 °C (via eChemPortal).

Clc1ccc(-c2ccccc2Cl)cc1Cl [2',3,4-Trichlorobiphenyl] is reported with melting point 60 °C (via QSARDB). CCCNC(=S)NN [Hydrazinecarbothioamide, N-propyl-] is reported with melting point 62 °C (via OCHEM). The entry for O=C(O)c1ccc2c(c1Cl)C(=O)c1ccccc1C2=O lists melting point 200 °C (via OCHEM). For O=C(O)c1n[nH]c2ccc([N+](=O)[O-])cc12 [5-nitro-1H-indazole-3-carboxylic Acid] the data give melting point 254 °C (via OCHEM). For CCn1c(=O)[nH]c2ccccc21 [1-Ethyl-2-benzimidazolinone] the data give melting point 122 °C (via OCHEM).

For CCCn1cc[nH]c1=S [1-propyl-1H-imidazole-2-thiol] the data give melting point 120 °C (via OCHEM). For CNC(=O)NC(=O)C(Cl)c1ccccc1 (configuration not stated) [2-chloro-N-[(methylamino)carbonyl]-2-phenylacetamide] the data give melting point 131 °C (via OCHEM). For O=c1nc[nH]c2ccc(Br)cc12 [6-bromoquinazolin-4-ol] the data give melting point 269 °C (via OCHEM). For O=C(O)c1ccccc1Nc1ccc(OC(F)F)cc1 [Anthranilic acid, N-(p-(difluoromethoxy)phenyl)-] the data give melting point 154 °C (via OCHEM). For CCOc1cccc2cc(C(C)=O)oc12 [1-(7-Ethoxy-1-benzofuran-2-yl)ethan-1-one] the data give melting point 73 °C (via OCHEM).

Listed for CCc1ccc(C)nc1N [3-Ethyl-6-methylpyridin-2-amine]: melting point 46.5 °C (via OCHEM). For COc1cc(C=O)ccc1OCC(N)=O [2-(4-formyl-2-methoxyphenoxy)acetamide] the data give melting point 156 °C (via OCHEM). NS(=O)(=O)c1cc(C(=O)O)c(NCc2ccco2)cc1Cl [Furosemide] is reported with melting point 295 °C (via OCHEM, PubChem). CCOC(=O)c1c(N)sc2ccccc12 [ethyl 2-amino-1-benzothiophene-3-carboxylate] is reported with melting point 106 °C (via OCHEM). For N#Cc1c(Cl)nc(Cl)c(Cl)c1Cl the data give melting point 149 °C (via OCHEM).

Oc1ccc2ccccc2c1CN1CCOCC1 [2-Naphthol, 1-(morpholinomethyl)-] is reported with melting point 53 °C (via OCHEM). Listed for ClCc1noc(-c2ccc(Cl)cc2)n1 [3-(Chloromethyl)-5-(4-chlorophenyl)-1,2,4-oxadiazole]: melting point 80 °C (via OCHEM). Cc1ccc(C)c(NC(=S)NN)c1 [N-(2,5-Dimethylphenyl)hydrazinecarbothioamide] has melting point 163 °C (via OCHEM). Cc1ccc(S(=O)(=O)N(CCC(=O)O)c2ccccc2)cc1 [N-(4-Methylbenzene-1-sulfonyl)-N-phenyl-beta-alanine] has melting point 146 °C (via OCHEM). O=C(O)Cn1cccnc1=O [(2-oxopyrimidin-1(2H)-yl)acetic acid] has melting point 212 °C (via OCHEM).

N#CCc1coc(-c2ccccc2)n1 [(2-Phenyl-1,3-oxazol-4-yl)acetonitrile] is reported with melting point 88 °C (via OCHEM). The entry for Cc1nc(-c2ccccc2)cs1 [2-Methyl-4-phenylthiazole] lists melting point 53.5 °C (via OCHEM). O=P([O-])(OCc1ccccc1)OCc1ccccc1.[K+] [Phosphoric acid bis(phenylmethyl) ester potassium salt (1:1)] has melting point 229.9 °C (via eChemPortal). The entry for O=C(NC1CC1)c1ccc(Cl)c([N+](=O)[O-])c1 [4-chloro-n-cyclopropyl-3-nitrobenzamide] lists melting point 131 °C (via OCHEM). The entry for CC(O)CNCCC#N (configuration not stated) [3-[(2-Hydroxypropyl)amino]propanenitrile] lists melting point 49 °C (via eChemPortal).

O=C(Cc1nc2ccccc2[nH]1)C(F)(F)F [3-(1H-Benzimidazol-2-yl)-1,1,1-trifluoropropan-2-one] has melting point 250 °C (via OCHEM). Cc1cc(C)c2c(N)c(C(=O)NN)sc2n1 [3-amino-4,6-dimethylthieno[2,3-b]pyridine-2-carbohydrazide] has melting point 246 °C (via OCHEM). Listed for C#CCOc1ccc(Br)cc1C=O [5-Bromo-2-[(prop-2-yn-1-yl)oxy]benzaldehyde]: melting point 96 °C (via OCHEM). ClCc1nc(Cl)c2c3c(sc2n1)CCCC3 has melting point 90 °C (via OCHEM). The entry for CCOc1ccc(C#N)cn1 [6-Ethoxypyridine-3-carbonitrile] lists melting point 98 °C (via OCHEM).

Listed for Clc1ccc(Cn2cncn2)cc1 [1-(4-Chlorobenzyl)-1H-1,2,4-triazole]: melting point 67 °C (via OCHEM). Listed for Nc1nc2ccccc2o1 [Benzoxazol-2-amine]: melting point 125 °C (via OCHEM). CC(=O)N1CCCC(C(=O)O)C1 (configuration not stated) [1-Acetyl-3-piperidinecarboxylic acid] has melting point 130 °C (via OCHEM). CCC1(C)NC(=O)N(N)C1=O (configuration not stated) [3-Amino-5-ethyl-5-methylimidazolidine-2,4-dione] has melting point 154 °C (via OCHEM). The entry for F[B-](F)(F)C(F)(F)C(F)(F)F.[K+] [Potassium trifluoro(pentafluoroethyl)borate(1-)] lists melting point 254.5 °C (via ChemicalBook).

A selection of 7 entries from above:

CCOc1ccc(C#N)cn1 [6-Ethoxypyridine-3-carbonitrile] has melting point 98 °C (via OCHEM).
CCn1c(=O)[nH]c2ccccc21 [1-Ethyl-2-benzimidazolinone] has melting point 122 °C (via OCHEM).
CCCn1cc[nH]c1=S [1-propyl-1H-imidazole-2-thiol] has melting point 120 °C (via OCHEM).
N#Cc1c(Cl)nc(Cl)c(Cl)c1Cl has melting point 149 °C (via OCHEM).
Cc1cc(C)c2c(N)c(C(=O)NN)sc2n1 [3-amino-4,6-dimethylthieno[2,3-b]pyridine-2-carbohydrazide] has melting point 246 °C (via OCHEM).
O=P([O-])(OCc1ccccc1)OCc1ccccc1.[K+] [Phosphoric acid bis(phenylmethyl) ester potassium salt (1:1)] has melting point 229.9 °C (via eChemPortal).
Clc1ccc(Cn2cncn2)cc1 [1-(4-Chlorobenzyl)-1H-1,2,4-triazole] has melting point 67 °C (via OCHEM).

Values as listed in the OPERA 2.9 repository of K. Mansouri.